Results published in article PMC9594040, “Structure-Based Discovery of Negative Allosteric Modulators of the Metabotropic Glutamate Receptor 5” (ACS Chemical Biology, 2022).

By UniProt entry, the sequences of proteins in these tests, tags left out. Residues count along the entry.
UniProt P41594, 21-1212: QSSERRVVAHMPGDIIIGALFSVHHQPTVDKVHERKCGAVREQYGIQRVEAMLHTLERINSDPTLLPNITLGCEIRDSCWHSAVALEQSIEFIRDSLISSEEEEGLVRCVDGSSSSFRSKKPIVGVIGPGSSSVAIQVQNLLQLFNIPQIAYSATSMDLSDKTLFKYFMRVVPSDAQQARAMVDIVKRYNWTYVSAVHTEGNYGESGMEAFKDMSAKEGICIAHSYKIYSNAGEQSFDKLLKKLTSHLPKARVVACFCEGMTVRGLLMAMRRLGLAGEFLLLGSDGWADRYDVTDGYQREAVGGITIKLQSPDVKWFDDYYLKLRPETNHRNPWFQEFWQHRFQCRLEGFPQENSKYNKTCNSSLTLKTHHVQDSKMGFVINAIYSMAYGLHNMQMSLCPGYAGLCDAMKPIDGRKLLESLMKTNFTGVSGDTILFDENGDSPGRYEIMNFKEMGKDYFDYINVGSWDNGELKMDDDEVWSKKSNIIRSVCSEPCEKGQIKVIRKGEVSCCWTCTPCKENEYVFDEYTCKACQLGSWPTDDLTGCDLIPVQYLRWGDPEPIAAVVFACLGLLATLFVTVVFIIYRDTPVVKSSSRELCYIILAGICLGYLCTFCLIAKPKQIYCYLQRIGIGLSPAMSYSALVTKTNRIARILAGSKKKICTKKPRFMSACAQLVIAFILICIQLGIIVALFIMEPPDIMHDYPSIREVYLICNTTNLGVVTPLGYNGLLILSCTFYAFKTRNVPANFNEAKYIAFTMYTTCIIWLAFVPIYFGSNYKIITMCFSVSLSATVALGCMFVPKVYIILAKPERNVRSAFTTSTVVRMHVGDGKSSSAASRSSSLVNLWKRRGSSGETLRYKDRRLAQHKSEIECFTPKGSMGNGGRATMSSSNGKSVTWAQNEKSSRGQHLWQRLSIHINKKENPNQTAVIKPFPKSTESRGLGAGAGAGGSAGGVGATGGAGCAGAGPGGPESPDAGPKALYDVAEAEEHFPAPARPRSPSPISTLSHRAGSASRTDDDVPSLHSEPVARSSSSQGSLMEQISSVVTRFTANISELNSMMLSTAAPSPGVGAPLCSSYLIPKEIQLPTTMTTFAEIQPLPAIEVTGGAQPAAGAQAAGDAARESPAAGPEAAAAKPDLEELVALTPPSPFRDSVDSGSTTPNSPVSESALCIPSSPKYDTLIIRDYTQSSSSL

Key:
human mGlu5 [1] = target: T1, human mGlu5 (Homo sapiens, UniProt P41594); experiment: Radioligand displacement assay (radiolabeled MPEP) on membranes of HEK293 cells stably expressing mGlu5; settings: mean ± SEM of two experiments
human mGlu5 [2] = target: T1, human mGlu5; experiment: IP1 functional assay, quisqualate-stimulated HEK293 cells expressing mGlu5; format: cell-based; set-up: expressed in transfected cells; host or cells: HEK293 cells, transient electroporation; glutamate transporter EAAC1 co-transfected; settings: quisqualate 50 nM; mean ± SEM of 3–5 independent experiments
Description: Figure 3 Evaluation of compounds F1 and F2 in functional assays. Representative dose–response curve of compounds (a) F1 and (b) F2 in an IP1 functional assay. […] Each point was performed in triplicate and is shown as a mean ± SEM of 3–5 independent experiments.
HEK293 cells were cultured in Dulbecco’s modified Eagle’s medium (DMEM) supplemented with 10% fetal bovine serum (FBS) and were maintained at 37 °C in a humidified atmosphere with 5% CO2. Transient transfection was performed using electroporation in a volume of […] with […] of plasmid encoding SNAP-tag human mGlu5, […] plasmid encoding for the glutamate transporter EAAC1 plasmids, and 10 million of HEK293 cells in electroporation buffer (50 mM K2HPO4, 20 mM CH3COOK, and 20 mM KOH, pH 7.4). After electroporation (250 V, 0.5 mF, Bio–Rad Gene Pulser electroporator; Bio-Rad Laboratories, Hercules, CA), cells were resuspended in 10 mL of DMEM supplemented with 10% FBS and seeded for 24 h into black, clear-bottom 96-well culture plates (Greiner Bio-one), pretreated with Poly-L-Ornithine 1X, at a density of 100,000 cells per well. […] The IP1 accumulation assay kit (Cisbio Bioassays, PerkinElmer) was used for the direct quantitative measurement of IP1. […] Terbium cryptate fluorescence and tr-FRET signals were measured at 620 and 665 nm, respectively, using a PheraStar fluorimeter (BMG Labtech).

- Ki (human mGlu5 [1]): 0.0076 ± 0.0001 µM
- IC50 (human mGlu5 [2]): 0.0661 µM
Structure (SMILES): Cc1cccc(C#Cc2ccccc2)n1 [MPEP, 2-Methyl-6-(Phenylethynyl)-Pyridine, reference compound]
